The target in this experiment is rabbit skeletal muscle myosin II (rabbit) (UniProt Q28641).

For “rabbit skeletal muscle F-actin, pyrene-labeled (from UniProt P68135 1-377) (natural protein)”, the actin activated myosin ATPase activity, myosin alone: KM was found to be 1.15 µM; the actin activated myosin ATPase activity, myosin alone: Vmax is 2.39 s⁻¹; the actin activated myosin ATPase activity, myosin and HGAL: KM is 1.39 µM; the actin activated myosin ATPase activity, myosin and HGAL: Vmax was 2.49 s⁻¹.

Source of the values: paper PMC3097272.
